# Reference: US9072759B2 (priority 2008, dated 2015)
# Marks after values point to notes of the source that are not given here.
# Key:
# [1] = tested on: S. pneumoniae (ATCC 49619)
# [2] = tested on: β-haemolytic streptococci (5)
# [3] = tested on: Coagulase-neg. staphylococci (5)
# [4] = tested on: Viridans group streptococci (5)
Compound,Antimicrobial activity (time kill curve) [1],No. of strains with MBC/MIC value of: ≧32 [2],No. of strains with MBC/MIC value of: ≧32 [3],No. of strains with MBC/MIC value of: ≧32 [4],No. of strains with MBC/MIC value of: ≧32 (S. aureus (10)),No. of strains with MBC/MIC value of: ≧32 (Enterococcus spp. (5))
"CC[C@H]1OC(=O)[C@H](C)C(=O)[C@H](C)[C@@H](O[C@@H]2O[C@H](C)C[C@H](N(C)C)[C@H]2O)[C@](C)(OC)C[C@@H](C)C(=O)[C@H](C)[C@H]2N(CCCCn3cnc(-c4cccnc4)c3)C(=O)O[C@]12C [TEL, Telithromycin]","Cidal at 2X, 4X, 8X",–,–,–,–,–
"CC[C@H]1OC(=O)[C@H](C)[C@@H](O[C@H]2C[C@@](C)(OC)[C@@H](O)[C@H](C)O2)[C@H](C)[C@@H](O[C@@H]2O[C@H](C)C[C@H](N(C)C)[C@H]2O)[C@](C)(OC)C[C@@H](C)C(=O)[C@H](C)[C@@H](O)[C@]1(C)O [CLR, Clarithromycin]","Cidal at 2X, 4X, 8X (slow killing)",2^b,4^b,3^b,6^b,2^b
"CC[C@H]1OC(=O)[C@H](C)[C@@H](O[C@H]2C[C@@](C)(OC)[C@@H](O)[C@H](C)O2)[C@H](C)[C@@H](O[C@@H]2O[C@H](C)C[C@H](N(C)C)[C@H]2O)[C@](C)(O)C[C@@H](C)CN(C)[C@H](C)[C@@H](O)[C@]1(C)O [AZI, Azithromycin, reference compound]","Cidal at 2X, 4X, 8X (slow killing)",–,–,–,–,–
"CC[C@H]1OC(=O)[C@@](C)(F)C(=O)[C@H](C)[C@@H](OC2OC(C)CC(N(C)C)C2O)[C@@](C)(OC)C[C@@H](C)C(=O)[C@H](C)[C@H]2N(CCCCn3cc(-c4cccc(N)c4)nn3)C(=O)O[C@]12C (stereo partly drawn) [CEM-101, 11-N-4-(3-aminophenyl)-[1,2,3]triazol-1-yl]-butyl}-5-desosaminyl-3-oxo-2-fluoro-erythronolide A,-11,12-cyclic carbamate]","Cidal at 2X, 4X, 8X",–,–,–,–,–
